# Measured affinities in a library of Ab-91 heavy chain variants

Data: MIT Lincoln Laboratory AlphaSeq set, Engelhart et al. 2022, doi:10.1038/s41597-022-01779-4, as distributed in FLAb.

Target peptide (SARS-CoV-2 spike, HR2 region): PDVDLGDISGINAS

Each scFv is VL, three GGGGS repeats, VH, as in the parent Ab-91, and differs from it in the CDRs of the heavy chain only.
VL: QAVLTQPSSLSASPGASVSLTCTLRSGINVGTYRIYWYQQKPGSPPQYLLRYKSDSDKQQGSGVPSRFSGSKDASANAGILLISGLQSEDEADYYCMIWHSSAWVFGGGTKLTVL
VH: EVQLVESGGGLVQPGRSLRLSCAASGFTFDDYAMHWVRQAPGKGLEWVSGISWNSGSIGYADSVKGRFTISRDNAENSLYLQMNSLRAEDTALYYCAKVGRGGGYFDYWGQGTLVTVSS

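In library AAYL51, one, two or three CDR residues were substituted; doubles and triples were drawn at random. The assay is AlphaSeq: two haploid yeast populations carry antibody and antigen on their surface. Binding brings cells together so that they mate, and sequencing counts the barcode pairs among the diploids. Scores were corrected for input abundance and mapped to Kd with protein pairs of known affinity run in the same pool. The assay was run in three technical replicates.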

Changes read parent residue, position, new residue, counted from the first residue of the VH shown.
Values are log10 of the apparent Kd in nM; lower means stronger binding.
The mean shown is taken over the replicates in which the pair was detected.
Where no diploid with the target was found in that replicate, the entry reads "ND": below detection, most likely a poor binder, though not proof of it.
Three control strains display no target. For library AAYL51, 21% of the pairings with them gave a signal, with a median of 4.54 and one signal in twenty below 3.26, so weak values seen in few replicates may be background. For each scFv, signals with the empty controls are counted beside the result.

Variant S52H G56M showed ND, ND, ND (controls 0 of 9).
Variant W53V K65F G103K showed ND, ND, ND (controls 0 of 9).
Variant Y32H W53F D107W showed 4.16, ND, ND (controls 2 of 9).
Variant F27D G56A G103Y showed ND, ND, ND (controls 0 of 9).
Variant Y32W S52P W53F showed 4.53, ND, ND (controls 2 of 9).
Variant K65I G102N G103I showed 4.94, 5.15, 5.52 (mean 5.20; controls 6 of 9).
Variant D31V D62E D107Q showed ND, ND, ND (controls 0 of 9).
Variant G50Y G103R Y108G showed ND, ND, ND (controls 2 of 9).
Variant Y32M G102F Y108P showed 4.46, 4.38, ND (mean 4.42; controls 5 of 9).
Variant F29Y A61W G103M showed ND, ND, ND (controls 0 of 9).
Variant I51Y S55Q G102N showed ND, 4.78, ND (controls 1 of 9).
Variant G56W V99R G103P showed ND, ND, ND (controls 0 of 9).
Variant T28D I51Q S52H showed 5.64, 6.19, 5.02 (mean 5.62; controls 1 of 9).
Variant D30Y M34V G103P showed 4.46, ND, 5.02 (mean 4.74; controls 5 of 9).
Variant T28F F29D M34G showed ND, 3.60, ND (controls 4 of 9).
Variant M34F S52R R101Y showed ND, ND, ND (controls 4 of 9).
Variant S55D I58P V64W showed 4.75, ND, ND (controls 5 of 9).
Variant I58P G103A G104W showed ND, ND, ND (controls 4 of 9).
Variant F29M Y60H R101N showed ND, ND, ND (controls 1 of 9).
Variant Y32N Y60Q K65H showed ND, ND, ND (controls 0 of 9).
Variant S57K G59R G102Y showed 6.34, 6.07, 3.68 (mean 5.36; controls 2 of 9).
Variant A33I M34E D62G showed ND, ND, ND (controls 2 of 9).
Variant M34P V64I R101Y showed 4.26, 4.57, ND (mean 4.41; controls 6 of 9).
Variant S52C G103Y D107W showed ND, ND, ND (controls 0 of 9).
Variant Y60H G100Q F106A showed ND, ND, 4.19 (controls 4 of 9).
Variant F29T I58G G102N showed 3.62, 6.26, ND (mean 4.94; controls 5 of 9).
Variant G59A S63D G103M showed ND, ND, ND (controls 1 of 9).
Variant I51T G100R D107H showed ND, ND, ND (controls 0 of 9).
Variant I51P S63Y Y105S showed 5.61, ND, ND (controls 4 of 9).
Variant Y32A S57E V99F showed ND, ND, ND (controls 0 of 9).
Variant F29W S57K G100N showed ND, ND, ND (controls 2 of 9).
Variant F27A Y32N G103M showed ND, ND, ND (controls 2 of 9).
Variant S63R K65M G102Y showed ND, ND, ND (controls 1 of 9).

The 3 strongest on average among those seen in every replicate, once more:

Variant K65I G102N G103I gave 4.94, 5.15, 5.52 (mean 5.20; controls 6 of 9).
Variant S57K G59R G102Y gave 6.34, 6.07, 3.68 (mean 5.36; controls 2 of 9).
Variant T28D I51Q S52H gave 5.64, 6.19, 5.02 (mean 5.62; controls 1 of 9).